Experimental findings from BindingDB's records for doi:10.1074/jbc.M111.292243 (University of Copenhagen, 2012) are described below.

Protein sequences, listed by entry. Tags and fused reporters are not part of them.
UniProt P58154, whole entry: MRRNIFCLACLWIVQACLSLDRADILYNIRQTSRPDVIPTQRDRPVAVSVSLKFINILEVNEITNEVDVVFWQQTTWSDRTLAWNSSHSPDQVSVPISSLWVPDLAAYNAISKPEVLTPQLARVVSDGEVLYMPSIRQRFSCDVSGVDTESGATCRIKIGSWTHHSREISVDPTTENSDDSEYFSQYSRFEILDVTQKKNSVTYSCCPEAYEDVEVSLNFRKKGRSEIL

This experiment deals with Acetylcholine-binding protein (Lymnaea stagnalis, UniProt P58154). The experiment can be described thus: Radioligand Competition Assay. (Displacement assays read how much labelled ligand stays bound in the presence of the test substance.)

pKi: −log10 of the molar value.

With `CN1CCC[C@H]1c1cccnc1` [(R,S)-nicotine], the pKi (in general, the negative decadic logarithm of the Ki, by convention in mol/L) was 7.08.
